# Measurements: PubChem BioAssay (Tox21)
# Chains of the proteins cited; added tags and fusions are not shown. Lines headed by an entry give the natural chain unless they say otherwise; changes in a name come on top.
# UniProt Q92731, whole entry, looked up: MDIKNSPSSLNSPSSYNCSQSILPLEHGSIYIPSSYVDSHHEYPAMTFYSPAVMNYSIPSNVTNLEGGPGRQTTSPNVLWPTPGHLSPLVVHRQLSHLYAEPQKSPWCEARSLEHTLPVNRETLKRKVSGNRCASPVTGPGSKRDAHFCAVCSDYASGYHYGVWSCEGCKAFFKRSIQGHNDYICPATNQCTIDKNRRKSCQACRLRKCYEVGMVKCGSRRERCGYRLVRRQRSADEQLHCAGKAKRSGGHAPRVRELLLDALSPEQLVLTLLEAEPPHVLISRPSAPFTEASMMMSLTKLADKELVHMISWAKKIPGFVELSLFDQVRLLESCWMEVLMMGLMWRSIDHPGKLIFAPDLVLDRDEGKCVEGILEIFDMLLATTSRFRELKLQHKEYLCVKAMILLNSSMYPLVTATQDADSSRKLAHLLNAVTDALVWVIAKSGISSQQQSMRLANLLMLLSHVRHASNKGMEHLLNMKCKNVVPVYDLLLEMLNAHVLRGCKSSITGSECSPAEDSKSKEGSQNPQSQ
# UniProt P10275: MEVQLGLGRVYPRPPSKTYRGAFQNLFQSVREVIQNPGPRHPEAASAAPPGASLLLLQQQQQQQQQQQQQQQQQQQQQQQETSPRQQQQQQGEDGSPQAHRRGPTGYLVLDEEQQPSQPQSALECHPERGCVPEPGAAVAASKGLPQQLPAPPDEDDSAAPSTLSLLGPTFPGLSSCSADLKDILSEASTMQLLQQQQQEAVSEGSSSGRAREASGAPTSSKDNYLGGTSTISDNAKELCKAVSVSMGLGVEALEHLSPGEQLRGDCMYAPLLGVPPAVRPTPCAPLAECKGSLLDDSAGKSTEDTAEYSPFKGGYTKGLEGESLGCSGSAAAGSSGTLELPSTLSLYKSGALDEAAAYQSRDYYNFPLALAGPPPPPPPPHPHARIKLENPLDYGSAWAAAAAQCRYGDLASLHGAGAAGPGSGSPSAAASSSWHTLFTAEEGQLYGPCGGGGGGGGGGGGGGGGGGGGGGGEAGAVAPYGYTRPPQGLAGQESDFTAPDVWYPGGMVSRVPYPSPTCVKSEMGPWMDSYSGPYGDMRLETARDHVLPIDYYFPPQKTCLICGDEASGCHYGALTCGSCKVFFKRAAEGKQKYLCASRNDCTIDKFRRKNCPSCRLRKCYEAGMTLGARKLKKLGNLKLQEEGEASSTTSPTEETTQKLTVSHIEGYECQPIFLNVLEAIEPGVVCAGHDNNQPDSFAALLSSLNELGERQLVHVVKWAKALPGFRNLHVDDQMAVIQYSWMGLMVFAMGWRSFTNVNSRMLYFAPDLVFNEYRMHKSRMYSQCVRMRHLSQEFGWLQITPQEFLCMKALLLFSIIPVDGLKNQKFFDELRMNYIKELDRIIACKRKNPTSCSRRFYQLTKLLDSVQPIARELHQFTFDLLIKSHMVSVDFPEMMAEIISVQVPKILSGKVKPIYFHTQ
# UniProt Q14994: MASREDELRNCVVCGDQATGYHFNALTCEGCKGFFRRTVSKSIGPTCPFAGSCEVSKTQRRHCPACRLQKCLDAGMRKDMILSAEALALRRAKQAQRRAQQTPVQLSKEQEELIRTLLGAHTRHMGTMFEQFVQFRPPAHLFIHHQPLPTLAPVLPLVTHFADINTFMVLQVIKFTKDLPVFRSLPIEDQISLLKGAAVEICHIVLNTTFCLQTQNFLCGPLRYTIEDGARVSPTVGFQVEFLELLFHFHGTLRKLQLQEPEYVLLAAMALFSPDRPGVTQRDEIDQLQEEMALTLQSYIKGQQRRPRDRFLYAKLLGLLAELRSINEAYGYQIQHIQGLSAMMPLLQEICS
# UniProt P03372, whole entry, looked up: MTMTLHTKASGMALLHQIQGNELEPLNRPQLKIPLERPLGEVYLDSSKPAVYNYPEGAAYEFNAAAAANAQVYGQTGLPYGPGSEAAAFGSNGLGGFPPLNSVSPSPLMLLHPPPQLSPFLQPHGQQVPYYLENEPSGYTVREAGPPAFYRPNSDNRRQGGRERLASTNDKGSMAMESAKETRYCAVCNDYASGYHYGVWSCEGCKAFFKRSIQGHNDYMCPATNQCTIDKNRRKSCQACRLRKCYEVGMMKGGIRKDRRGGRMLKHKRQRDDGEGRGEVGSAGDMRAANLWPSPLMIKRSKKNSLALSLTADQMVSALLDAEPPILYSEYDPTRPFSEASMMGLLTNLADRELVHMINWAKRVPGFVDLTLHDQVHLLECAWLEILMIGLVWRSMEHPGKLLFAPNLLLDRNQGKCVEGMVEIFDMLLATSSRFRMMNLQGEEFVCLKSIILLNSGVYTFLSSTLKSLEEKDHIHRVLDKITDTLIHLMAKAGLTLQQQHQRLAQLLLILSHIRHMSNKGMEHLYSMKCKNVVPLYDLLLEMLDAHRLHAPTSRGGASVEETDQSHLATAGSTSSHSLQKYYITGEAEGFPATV
# UniProt Q96RI1: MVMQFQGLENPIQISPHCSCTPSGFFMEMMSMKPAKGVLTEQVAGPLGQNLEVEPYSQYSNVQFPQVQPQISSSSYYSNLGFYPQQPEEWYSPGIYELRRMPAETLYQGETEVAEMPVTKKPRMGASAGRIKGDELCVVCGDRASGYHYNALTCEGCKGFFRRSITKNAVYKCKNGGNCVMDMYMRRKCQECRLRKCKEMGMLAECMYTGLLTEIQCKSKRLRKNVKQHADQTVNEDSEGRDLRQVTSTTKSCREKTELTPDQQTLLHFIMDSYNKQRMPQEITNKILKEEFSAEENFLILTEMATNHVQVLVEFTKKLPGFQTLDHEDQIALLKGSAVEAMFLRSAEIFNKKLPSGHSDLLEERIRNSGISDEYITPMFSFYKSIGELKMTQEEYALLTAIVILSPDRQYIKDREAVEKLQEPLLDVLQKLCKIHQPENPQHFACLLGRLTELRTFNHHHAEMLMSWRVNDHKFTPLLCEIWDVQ
# UniProt P34981: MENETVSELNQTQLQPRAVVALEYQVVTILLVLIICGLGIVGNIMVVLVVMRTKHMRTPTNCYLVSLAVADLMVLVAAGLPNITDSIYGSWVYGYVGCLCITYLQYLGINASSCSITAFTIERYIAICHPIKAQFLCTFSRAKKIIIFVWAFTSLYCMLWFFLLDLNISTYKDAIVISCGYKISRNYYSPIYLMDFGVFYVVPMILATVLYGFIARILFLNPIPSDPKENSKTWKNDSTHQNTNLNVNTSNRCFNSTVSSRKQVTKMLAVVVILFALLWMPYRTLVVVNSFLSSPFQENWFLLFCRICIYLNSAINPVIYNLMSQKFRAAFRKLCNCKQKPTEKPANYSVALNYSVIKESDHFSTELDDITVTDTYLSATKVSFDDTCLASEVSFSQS
# Values joined by “and” are separate entries in the source; they are usually repeats but may differ in a detail not shown here. Identical values can stand only once. For part of these data: Most of the hits are listed elsewhere, so they are rarer here than in the full data. Inconclusive results are not listed. Some compounds were tested as several samples or in several runs, with calls that do not always agree. The entries are a selection whose mix differs from that of the whole data set. Active and inactive are the calls of the source. Unless noted, the call rests on the fitted dose curve; in most records, active means well fitted curve in the direction sought with a large enough effect in the repeat runs; inconclusive means weak or mixed curves; inactive means no such curve, though single readings can be large; an effect the other way counts as inactive or inconclusive.
# Experiments:
# [1] = qHTS assay to identify small molecule antagonists of the retinoic acid receptor (RAR) signaling pathway (AID 1159552; further: nearly all actives have a fitted effect of over 50% in size; further: potency means the concentration at half of the fitted maximal effect); settings: C3RL4 RARE luciferase reporter, retinol-stimulated, 6 h; series mostly up to 42.5 µM
# Procedure, shortened: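 Antagonism of retinol-induced RARE reporter activity was measured in C3RL4 cells. Exposure to compounds and 1 uM final retinol lasted 6 hr at 37 C, with luminescence as endpoint.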
# [2] = target: Estrogen receptor beta (Homo sapiens) (UniProt Q92731); assay: qHTS assay to identify small molecule antagonists of the estrogen receptor beta (ER-beta) signaling pathway (AID 1259378; active means well fitted inhibition curve with a large enough effect in the signal ratio in the repeat runs, not every such curve was filed as active; the % refers to the signal ratio; further: potency means the concentration at half of the fitted maximal effect); settings: ER-beta-UAS-bla HEK293T, beta-lactamase FRET ratio, 16 h; series mostly up to 42.5 µM
# Procedure, shortened: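 ER-beta-UAS-bla HEK293T (GripTite) cells in 2% charcoal-stripped FBS medium were preincubated 6 hr at 37C, dosed with compound, then stimulated with 1 nM E2 (final) for 16 hr; beta-lactamase reporter read by B/G FRET fluorescence after 2 hr substrate loading.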
# [3] = target: Androgen receptor (Homo sapiens) (UniProt P10275); assay: qHTS assay to identify small molecule antagonists of the androgen receptor (AR) signaling pathway (AID 743035; active means well fitted inhibition curve with a large enough effect in the signal ratio in the repeat runs, not every such curve was filed as active; the % refers to the signal ratio; further: on the % scale 0 is the no-effect control and ±100 the full control effect); settings: HEK293 AR-UAS-bla, R1881-stimulated, beta-lactamase FRET, 16 h; series mostly up to 58.5 µM
# [4] = target: Androgen receptor (Homo sapiens) (UniProt P10275); assay: qHTS assay to identify small molecule agonists of the androgen receptor (AR) signaling pathway using the MDA cell line (AID 743040; further: on the % scale 0 is the no-effect control and ±100 the full control effect; nearly all actives have a fitted effect of over 20% in size); settings: MDA-kb2 AR-luc cells, MMTV luciferase, 16 h; at 70.3 µM (top of the series); stronger effect = higher value
# [5] = target: Androgen receptor (Homo sapiens) (UniProt P10275); assay: qHTS assay to identify small molecule antagonists of the androgen receptor (AR) signaling pathway using the MDA cell line in the presence of 0.5 nM R1881 (AID 1259243); settings: MDA-kb2 MMTV-luciferase, R1881 0.5 nM, 16 h; series mostly up to 42.5 µM; further: nearly all actives have a fitted effect of over 50% in size; further: potency means the concentration at half of the fitted maximal effect
# [6] = target: Androgen receptor (Homo sapiens) (UniProt P10275); assay: qHTS assay to identify small molecule agonists of the androgen receptor (AR) signaling pathway in the presence of an antagonist (AID 1259381; calls by dose curve; further: on the % scale 0 is the no-effect control and ±100 the full control effect; nearly all actives have a fitted effect of over 15% in size); settings: MDA-kb2 MMTV-luciferase, AR agonist + nilutamide, 16 h; series mostly up to 92.4 µM
# [7] = target: Nuclear receptor subfamily 1 group I member 2 (Homo sapiens) (UniProt O75469); assay: Human pregnane X receptor (PXR) small molecule agonists, qHTS assay (AID 1346982); settings: PXR-Luc HepG2, CYP3A4 luciferase reporter, 24 h; series mostly up to 42.5 µM; further: on the % scale 0 is the no-effect control and ±100 the full control effect; nearly all actives have a fitted effect of over 35% in size
# Procedure, shortened: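 Cells: HepG2 stably carrying PXR-Luc. Medium held 5% charcoal-stripped FBS. Compounds in DMSO added after 5 hr plating, incubated 24 hr, then luminescence quantified with ONE-Glo.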
# [8] = target: Nuclear receptor subfamily 1 group I member 2 (Homo sapiens) (UniProt O75469); assay: CYP3A4 induction through human pregnane X receptor (PXR) by small molecules, qHTS assay (AID 1346984); settings: DPX-2 HepG2 PXR, CYP3A4-luciferin luminescence, 24 h; series mostly up to 46.1 µM; further: on the % scale 0 is the no-effect control and ±100 the full control effect; nearly all actives have a fitted effect of over 40% in size
# Procedure, shortened: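 Quantitative HTS in DPX-2 cells, i.e. HepG2 transfected with PXR response element and CYP3A4-promoter luciferase. Compounds in DMSO incubated 24hr at 37C; then P450-Glo CYP3A4 substrate, 3uM final, 3hr; One-Glo luminescence.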
# [9] = target: Nuclear receptor subfamily 1 group I member 2 (Homo sapiens) (UniProt O75469); assay: Human pregnane X receptor (PXR) activation by small molecules, qHTS assay (AID 1346985); settings: DPX-2 HepG2 CYP3A4-luciferase, 24 h; series mostly up to 38.3 µM; further: on the % scale 0 is the no-effect control and ±100 the full control effect; nearly all actives have a fitted effect of over 40% in size
# [10] = target: Androgen receptor (Homo sapiens) (UniProt P10275); assay: qHTS assay to identify small molecule antagonists of the androgen receptor (AR) signaling pathway using the MDA cell line (AID 743042; further: potency means the concentration at half of the fitted maximal effect; nearly all actives have a fitted effect of over 55% in size); settings: MDA-kb2 AR-luc, MMTV luciferase, R1881 antagonist, 16 h; series mostly up to 70.3 µM
# [11] = target: Nuclear receptor subfamily 1 group I member 3 (Homo sapiens) (UniProt Q14994); assay: qHTS assay to identify small molecule agonists of the constitutive androstane receptor (CAR) signaling pathway (AID 1224839); settings: HepG2 hCAR CYP2B6-luciferase, agonist mode, 24 h;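 further: HepG2 cells stably carrying human CAR and a CYP2B6 luciferase reporter; on the % scale 0 is the no-effect control and ±100 the full control effect; nearly all actives have a fitted effect of over 15% in size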
# [12] = target: Estrogen receptor (Homo sapiens) (UniProt P03372); assay: qHTS assay to identify small molecule antagonists of the estrogen receptor alpha (ER-alpha) signaling pathway using the BG1 cell line in the presence of 0.1 nM 17-beta-estradiol (AID 1259244); settings: VM7Luc4E2 (BG1) ERE-luciferase, antagonist mode, 0.1 nM E2, 22 h; further: on the % scale 0 is the no-effect control and ±100 the full control effect; nearly all actives have a fitted effect of over 50% in size
# [13] = target: Estrogen receptor (Homo sapiens) (UniProt P03372); assay: qHTS assay to identify small molecule agonists of the estrogen receptor alpha (ER-alpha) signaling pathway in the presence of an antagonist (AID 1259383; calls by dose curve; further: nearly all actives have a fitted effect of over 15% in size; further: potency means the concentration at half of the fitted maximal effect); settings: VM7Luc4E2 cells, ERE-luciferase, +ICI-182,780, 22 h; series mostly up to 92.4 µM
# [14] = target: Estrogen receptor (Homo sapiens) (UniProt P03372); assay: qHTS assay to identify small molecule antagonists of the estrogen receptor alpha (ER-alpha) signaling pathway (AID 743069; active means well fitted curve in the direction sought with a large enough effect in the signal ratio in the repeat runs, not every such curve was filed as active; the % refers to the signal ratio; further: on the % scale 0 is the no-effect control and ±100 the full control effect); settings: HEK293 ER-alpha-UAS-bla, beta-lactamase ratio, antagonist mode; series mostly up to 69.4 µM
# [15] = target: Estrogen receptor (Homo sapiens) (UniProt P03372); assay: qHTS assay to identify small molecule agonists of the estrogen receptor alpha (ER-alpha) signaling pathway (AID 743075; calls by dose curve; further: on the % scale 0 is the no-effect control and ±100 the full control effect); settings: HEK293 ER-alpha-UAS-bla, beta-lactamase FRET ratio, 18 h; series mostly up to 70.1 µM
# [16] = target: Estrogen receptor (Homo sapiens) (UniProt P03372); assay: qHTS assay to identify small molecule agonists of the estrogen receptor alpha (ER-alpha) signaling pathway using the BG1 cell line (AID 743079); settings: BG1Luc4E2 cells, ERE-luciferase agonist, 22 h; series mostly up to 70.3 µM; further: potency means the concentration at half of the fitted maximal effect; nearly all actives have a fitted effect of over 20% in size
# [17] = target: Bile acid receptor (Homo sapiens) (UniProt Q96RI1); assay: qHTS assay to identify small molecule antagonists of the farnesoid-X-receptor (FXR) signaling pathway (AID 743217; active means well fitted inhibition curve with a large enough effect in the signal ratio in the repeat runs, not every such curve was filed as active; the % refers to the signal ratio; further: on the % scale 0 is the no-effect control and ±100 the full control effect); settings: HEK293T FXR-UAS-bla, beta-lactamase ratio, CDCA-stimulated, 16 h; at 62.6 µM (top of the series)
# Procedure, shortened: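 Cells carrying a UAS-driven beta-lactamase reporter (GeneBLAzer FXR-UAS-bla HEK 293T) were plated and rested 5 h at 37 °C. Compounds in DMSO were added alongside chenodeoxycholic acid agonist at 50 uM final and left 16 h at 37 °C before FRET substrate readout.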
# [18] = target: Bile acid receptor (Homo sapiens) (UniProt Q96RI1); assay: qHTS assay to identify small molecule agonists of the farnesoid-X-receptor (FXR) signaling pathway (AID 743220; active means well fitted activation curve with a large enough effect in the signal ratio in the repeat runs, not every such curve was filed as active; the % refers to the signal ratio; further: on the % scale 0 is the no-effect control and ±100 the full control effect); settings: HEK293T FXR-UAS-bla, beta-lactamase FRET ratio, 16 h; at 62.6 µM (top of the series)
# [19] = target: Thyrotropin-releasing hormone receptor (Homo sapiens) (UniProt P34981); assay: qHTS assay to identify small molecule antagonists of the thyrotropin-releasing hormone receptor (TRHR) signaling pathway (AID 1346877; active means well fitted inhibition curve with a large enough effect in the repeat runs, not every such curve was filed as active; further: on the % scale 0 is the no-effect control and ±100 the full control effect); settings: TRHR-HEK293, TRH-induced calcium fluorescence, antagonist mode; at 23.6 µM (top of the series)
# [20] = target: Estrogen receptor beta (Homo sapiens) (UniProt Q92731); assay: qHTS assay to identify small molecule agonists of the estrogen receptor beta (ER-beta) signaling pathway (AID 1259377; active means well fitted activation curve with a large enough effect in the signal ratio in the repeat runs, not every such curve was filed as active; the % refers to the signal ratio; further: on the % scale 0 is the no-effect control and ±100 the full control effect); settings: ER-beta-UAS-bla HEK293T, beta-lactamase FRET ratio, 16 h; at 92.4 µM (top of the series) unless noted
compound,measurement,setting,value
NC(=O)C(c1ccccc1)(c1ccccc1)[C@@H]1CCN(CCc2ccc3c(c2)CCO3)C1,Potency,[1],inactive
same,Potency,[2],inactive
CCCCCCCCOc1ccccc1C(=O)Nc1ccc(C(=O)OCC[N+](C)(CC)CC)cc1,Potency,[3],inactive
same,activity change,[4],inactive: -10.1%
same,Potency,[1],active: 29.8 µM
same,Potency,[5],inactive
same,Potency,[6],inactive
O=C1NS(=O)(=O)c2ccccc21,Potency,[1],inactive
same,Potency,[2],inactive
same,Potency,[7],inactive
same,Potency,[8],inactive
same,Potency,[9],inactive
CCCCCCCCCCCCCC[n+]1ccccc1,activity change,[4],inactive: -2.98%
same,Potency,[10],active: 1.54 µM
same,Potency,[1],active: 24.3 µM
same,Potency,[5],active: 1.22 µM
same,Potency,[2],active: 61.1 µM
same,Potency,[6],inactive
CCCCCCCC[P+](CCCCCCCC)(CCCCCCCC)CCCCCCCC,activity change,[4],inactive: -1.42%
same,Potency,[10],active: 1.71 µM
same,Potency,[5],active: 0.242 µM
same,Potency,[6],inactive
O=C(O)CCNC(=O)c1ccccc1,activation,[11]; at 42.5 µM (top of the series),inactive: 0.136%
CNCCC(Oc1ccc(C(F)(F)F)cc1)c1ccccc1 (configuration not stated),activation,[11]; at 42.5 µM (top of the series),inactive: -22.4%
same,activation,[11]; at 92.4 µM (top of the series),inactive: -23.4%
same,Potency,[7],inactive
CO[C@@H]1[C@@H](OC)[C@H](C)[C@@](O)(CC(=O)O)O[C@H]1[C@H](C)[C@H]1O[C@@]2(CC[C@@](C)([C@H]3CC[C@@](C)([C@@H]4O[C@@H]([C@H]5O[C@](C)(O)[C@H](C)C[C@@H]5C)C[C@@H]4OC4C[C@H](OC)[C@@H](OC)[C@H](C)O4)O3)O2)C[C@H](O)[C@H]1C (some centres not stated),activity change,[4],inactive: -10.1%
same,Potency,[10],active: 0.596 µM
same,Potency,[5],active: 0.841 µM
same,Potency,[6],inactive
CC(C)c1ccc2c(c1)CC[C@H]1[C@](C)(CN)CCC[C@]21C,activity change,[4],inactive: -10.5%
same,Potency,[10],active: 17.2 µM
same,Potency,[1],active: 61.1 µM
same,Potency,[5],active: 17.2 µM
same,"activity change, negative = inhibition",[12]; at 92.4 µM (top of the series),inactive: 0.0641%
same,Potency,[6],inactive
same,Potency,[13],inactive
NNCCc1ccccc1,Potency,[14],inactive
same,Potency,[15],inactive
same,Potency,[16],active: 3.2 µM and active: 27.4 µM
same,"activity change, negative = inhibition",[17],inactive: -11.6% and inactive: -5.91%
same,activation,[18],inactive: 0.83%
same,"activity change, negative = inhibition",[12]; at 42.5 µM (top of the series),inactive: 67.2%
same,"activity change, negative = inhibition",[12]; at 92.4 µM (top of the series),inactive: 51.8%
same,Potency,[13],active: 9.72 µM and inactive
CC1CCc2cc(F)cc3c(=O)c(C(=O)O)cn1c23 (configuration not stated),activation,[11]; at 42.5 µM (top of the series),inactive: -3.02%
same,Potency,[7],inactive
C=C[C@H]1CN2CC[C@H]1C[C@H]2[C@H](O)c1ccnc2ccc(OC)cc12,activation,[11]; at 42.5 µM (top of the series),inactive: 1.59%
same,activation,[11]; at 92.4 µM (top of the series),inactive: 11.5%
CN1CCCN=C1/C=C/c1cccs1,Potency,[1],inactive
same,"activity, negative = inhibition",[19],inactive: -10.6%
CC[N+]1(CC)CCC(=C(c2ccccc2)c2ccccc2)C1C (configuration not stated),Potency,[2],inactive
O=S(=O)(O)c1ccccc1,activation,[20],inactive: 8.55% and inactive: -1.96%
same,Potency,[2],inactive
same,Potency,[7],inactive
NC(CCC(=O)O)C(=O)O (configuration not stated),Potency,[2],inactive
NC(=O)c1nc(-c2cccc(-c3cc(F)ccc3OCC(F)(F)C(F)(F)F)c2)n[nH]1,Potency,[2],active: 21.7 µM
